Test results from PMC11879040 (2024).
Where two headings read alike, the source gives them in different places.

Chains of the proteins cited; added tags and fusions are not shown. Lines headed by an entry give the natural chain unless they say otherwise; changes in a name come on top. Residues count along the entry.
UniProt Q12809: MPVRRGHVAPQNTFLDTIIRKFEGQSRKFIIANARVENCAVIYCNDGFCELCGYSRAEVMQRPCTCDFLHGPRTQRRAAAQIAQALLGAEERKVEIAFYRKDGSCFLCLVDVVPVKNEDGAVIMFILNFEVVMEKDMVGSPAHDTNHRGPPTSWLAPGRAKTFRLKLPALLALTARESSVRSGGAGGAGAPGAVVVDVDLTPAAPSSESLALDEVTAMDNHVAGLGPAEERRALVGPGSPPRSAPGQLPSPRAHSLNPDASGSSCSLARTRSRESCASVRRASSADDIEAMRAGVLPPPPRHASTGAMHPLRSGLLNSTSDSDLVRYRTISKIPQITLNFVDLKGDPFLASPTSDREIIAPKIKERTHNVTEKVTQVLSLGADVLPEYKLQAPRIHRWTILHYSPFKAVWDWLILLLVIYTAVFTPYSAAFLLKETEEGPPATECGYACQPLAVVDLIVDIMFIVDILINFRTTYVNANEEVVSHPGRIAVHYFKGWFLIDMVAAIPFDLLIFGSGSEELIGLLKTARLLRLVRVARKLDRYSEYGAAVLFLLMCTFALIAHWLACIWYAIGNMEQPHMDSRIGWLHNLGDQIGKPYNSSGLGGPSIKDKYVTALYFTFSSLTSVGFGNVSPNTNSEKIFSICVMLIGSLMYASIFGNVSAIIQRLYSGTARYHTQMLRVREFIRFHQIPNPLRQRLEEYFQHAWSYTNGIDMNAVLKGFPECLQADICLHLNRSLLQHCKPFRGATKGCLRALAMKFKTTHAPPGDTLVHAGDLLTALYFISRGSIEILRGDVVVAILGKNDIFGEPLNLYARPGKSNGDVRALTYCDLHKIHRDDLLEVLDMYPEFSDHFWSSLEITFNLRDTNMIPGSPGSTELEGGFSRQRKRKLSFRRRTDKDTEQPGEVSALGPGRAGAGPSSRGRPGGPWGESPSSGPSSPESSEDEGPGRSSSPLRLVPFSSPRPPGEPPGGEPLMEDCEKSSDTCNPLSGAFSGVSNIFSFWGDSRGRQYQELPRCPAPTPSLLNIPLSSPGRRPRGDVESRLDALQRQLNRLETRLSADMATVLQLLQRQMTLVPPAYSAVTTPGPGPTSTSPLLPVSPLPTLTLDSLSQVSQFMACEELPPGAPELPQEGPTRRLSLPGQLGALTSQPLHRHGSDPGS
UniProt P22303, 32-614: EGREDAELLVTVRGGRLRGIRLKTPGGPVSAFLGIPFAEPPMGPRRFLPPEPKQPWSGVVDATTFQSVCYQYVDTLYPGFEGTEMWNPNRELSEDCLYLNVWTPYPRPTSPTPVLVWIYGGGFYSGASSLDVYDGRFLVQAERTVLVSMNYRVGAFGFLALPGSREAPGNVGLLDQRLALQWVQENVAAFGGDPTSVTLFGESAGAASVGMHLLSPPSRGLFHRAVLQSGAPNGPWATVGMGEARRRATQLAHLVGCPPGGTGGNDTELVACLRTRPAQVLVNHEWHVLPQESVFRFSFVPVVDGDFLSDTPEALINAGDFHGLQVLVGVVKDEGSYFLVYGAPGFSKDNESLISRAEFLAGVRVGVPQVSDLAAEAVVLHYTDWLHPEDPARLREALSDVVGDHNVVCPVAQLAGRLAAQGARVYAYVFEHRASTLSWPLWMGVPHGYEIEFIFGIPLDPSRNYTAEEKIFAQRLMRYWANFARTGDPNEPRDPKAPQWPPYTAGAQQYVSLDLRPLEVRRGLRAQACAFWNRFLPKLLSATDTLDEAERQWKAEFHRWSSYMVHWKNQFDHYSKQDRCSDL

Tests used:
[1] = molecular target: Potassium voltage-gated channel subfamily H member 2 hERG, KCNH2 (h) (Homo sapiens, UniProt Q12809)
rat = conditions: multi-generational rat study; ref [10]; cited from earlier work
[2] = ref [10]; cited from earlier work
[3] = molecular target: T1, Pregnane X receptor PXR, NR1I2 (h) (Homo sapiens, UniProt O75469)
T1 sequence (O75469 1-434): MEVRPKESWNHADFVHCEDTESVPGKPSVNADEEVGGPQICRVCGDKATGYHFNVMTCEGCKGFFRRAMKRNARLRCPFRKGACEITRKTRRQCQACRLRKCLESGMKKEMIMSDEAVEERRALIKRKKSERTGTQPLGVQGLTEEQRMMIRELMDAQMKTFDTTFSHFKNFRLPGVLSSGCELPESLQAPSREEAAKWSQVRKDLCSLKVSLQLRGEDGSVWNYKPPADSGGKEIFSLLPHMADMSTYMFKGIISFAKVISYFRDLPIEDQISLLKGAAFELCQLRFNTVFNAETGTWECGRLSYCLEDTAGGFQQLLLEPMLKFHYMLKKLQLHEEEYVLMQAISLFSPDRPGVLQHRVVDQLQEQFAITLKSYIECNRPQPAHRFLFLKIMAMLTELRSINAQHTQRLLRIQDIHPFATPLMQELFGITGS

[4] = molecular target: T1, Pregnane X receptor PXR, NR1I2 (h); remark: listed apart in the source
[5] = molecular target: Acetylcholinesterase, ACHE (h) (Homo sapiens, UniProt P22303); conditions: IPP screening at 10 uM; control galanthamine

| Substance | IPP screening %, Specific binding [1] [%] | NOAEL (rat) [mg/kg bw/day] | ADI [2] [mg/kg bw/day] | IPP screening %, Coactivator recruitment [3] [%] | IPP screening %, Coactivator recruitment [4] [%] | Enzymatic activity [5] [%] |
| --- | --- | --- | --- | --- | --- | --- |
| mixture of 2- and 3-tert-butyl-4-methoxyphenol [Butylated Hydroxyanisole] | 5.4 | 100 | 1 | -1.3 | 15.1 |  |
| (4S,4aR,5S,5aR,6S,12aS)-4-(Dimethylamino)-3,5,6,10,12,12a-hexahydroxy-6-methyl-1,11-dioxo-1,4,4a,5,5a,6,11,12a-octahydrotetracene-2-carboxamide--hydrogen chloride (1/1) [Oxytetracycline hydrochloride] |  |  |  |  |  | 1.6 |
